This assay concerns the target Telomerase reverse transcriptase (Homo sapiens) (UniProt O14746). Description: Inhibition of telomerase activity (unknown origin) in presence of UV irradiation.

Amino acid sequences for entries named in this document (tags omitted). A change or cut given only in a name is not applied to a line headed by its entry.
UniProt O14746: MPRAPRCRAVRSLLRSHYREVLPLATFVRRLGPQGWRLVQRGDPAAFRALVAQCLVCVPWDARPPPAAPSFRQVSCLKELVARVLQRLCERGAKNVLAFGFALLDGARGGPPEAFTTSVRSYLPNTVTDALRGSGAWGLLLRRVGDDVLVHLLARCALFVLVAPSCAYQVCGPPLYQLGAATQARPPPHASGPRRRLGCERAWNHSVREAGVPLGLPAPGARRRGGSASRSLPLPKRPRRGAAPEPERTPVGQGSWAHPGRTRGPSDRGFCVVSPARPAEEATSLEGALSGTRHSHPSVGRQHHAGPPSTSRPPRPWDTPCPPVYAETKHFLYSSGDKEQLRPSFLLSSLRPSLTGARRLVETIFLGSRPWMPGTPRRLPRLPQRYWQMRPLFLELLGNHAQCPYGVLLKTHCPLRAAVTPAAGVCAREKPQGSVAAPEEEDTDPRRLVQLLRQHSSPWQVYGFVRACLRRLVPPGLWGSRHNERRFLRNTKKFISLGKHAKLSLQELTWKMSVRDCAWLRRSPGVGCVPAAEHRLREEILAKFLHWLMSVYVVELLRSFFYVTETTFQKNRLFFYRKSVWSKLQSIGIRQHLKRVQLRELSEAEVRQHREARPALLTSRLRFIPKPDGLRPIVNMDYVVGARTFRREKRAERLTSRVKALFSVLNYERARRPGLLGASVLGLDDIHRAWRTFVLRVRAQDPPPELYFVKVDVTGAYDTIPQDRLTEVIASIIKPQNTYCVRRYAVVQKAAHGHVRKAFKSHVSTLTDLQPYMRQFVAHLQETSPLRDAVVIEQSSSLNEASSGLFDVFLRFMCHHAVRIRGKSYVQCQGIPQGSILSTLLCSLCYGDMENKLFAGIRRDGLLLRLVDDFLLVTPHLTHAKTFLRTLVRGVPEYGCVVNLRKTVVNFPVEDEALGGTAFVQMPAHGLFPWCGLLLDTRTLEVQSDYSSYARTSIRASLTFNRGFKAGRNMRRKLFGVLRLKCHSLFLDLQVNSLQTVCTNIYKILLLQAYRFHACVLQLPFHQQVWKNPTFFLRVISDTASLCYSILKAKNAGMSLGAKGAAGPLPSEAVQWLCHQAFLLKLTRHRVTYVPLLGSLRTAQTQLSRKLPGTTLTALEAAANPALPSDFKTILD

SMILES strings stand for the structures. The source made the active and inactive calls. The calls are words filed in the database; no cut-off is given here.

With `Cc1cn([C@H]2C[C@H](OP(=O)(O)OC[C@H]3O[C@@H](n4cnc5c(=O)[nH]c(N)nc54)C[C@@H]3OP(=O)(O)OC[C@H]3O[C@@H](n4cnc5c(N)ncnc54)C[C@@H]3OP(=O)(O)OC[C@H]3O[C@@H](n4cnc5c(=O)[nH]c(N)nc54)C[C@@H]3OP(=O)(O)OC[C@H]3O[C@@H](n4ccc(N)nc4=O)C[C@@H]3OP(=O)(O)OC[C@H]3O[C@@H](n4cnc5c(=O)[nH]c(N)nc54)C[C@@H]3OP(=O)(O)OC[C@H]3O[C@@H](n4cc(C)c(=O)[nH]c4=O)C[C@@H]3OP(=O)(O)OC[C@H]3O[C@@H](n4cnc5c(N)ncnc54)C[C@@H]3OP(=O)(O)OC[C@H]3O[C@@H](n4cc(C)c(=O)[nH]c4=O)C[C@@H]3OP(=O)(O)OC[C@H]3O[C@@H](n4cnc5c(=O)[nH]c(N)nc54)C[C@@H]3OP(=O)(O)OC[C@H]3O[C@@H](n4cc(C)c(=O)[nH]c4=O)C[C@@H]3OP(=O)(O)OC[C@H]3O[C@@H](n4cnc5c(=O)[nH]c(N)nc54)C[C@@H]3OP(=O)(O)OC[C@H]3O[C@@H](n4cnc5c(N)ncnc54)C[C@@H]3OCC(C)(CO)C(=O)NCCCCC(Cl)C(OCc3ccccc3[N+](=O)[O-])OCc3ccccc3[N+](=O)[O-])[C@@H](COP(=O)(O)OCCOCCOCCOCCOCCOCCO)O2)c(=O)[nH]c1=O` (some centres not stated), the inhibition entry was “inactive”.

Regarding `Cc1cn([C@H]2C[C@H](OP(=O)(O)OC[C@H]3O[C@@H](n4cnc5c(=O)[nH]c(N)nc54)C[C@@H]3OP(=O)(O)OC[C@H]3O[C@@H](n4cnc5c(N)ncnc54)C[C@@H]3OP(=O)(O)OC[C@H]3O[C@@H](n4cnc5c(=O)[nH]c(N)nc54)C[C@@H]3OP(=O)(O)OC[C@H]3O[C@@H](n4ccc(N)nc4=O)C[C@@H]3OP(=O)(O)OC[C@H]3O[C@@H](n4cnc5c(=O)[nH]c(N)nc54)C[C@@H]3OP(=O)(O)OC[C@H]3O[C@@H](n4cc(C)c(=O)[nH]c4=O)C[C@@H]3OP(=O)(O)OC[C@H]3O[C@@H](n4cnc5c(N)ncnc54)C[C@@H]3OP(=O)(O)OC[C@H]3O[C@@H](n4cc(C)c(=O)[nH]c4=O)C[C@@H]3OP(=O)(O)OC[C@H]3O[C@@H](n4cnc5c(=O)[nH]c(N)nc54)C[C@@H]3OP(=O)(O)OC[C@H]3O[C@@H](n4cc(C)c(=O)[nH]c4=O)C[C@@H]3OP(=O)(O)OC[C@H]3O[C@@H](n4cnc5c(=O)[nH]c(N)nc54)C[C@@H]3OP(=O)(O)OC[C@H]3O[C@@H](n4cnc5c(N)ncnc54)C[C@@H]3OCCOCCOCCOCCOCCOCCO)[C@@H](COP(=O)(O)OCC(C)(CO)C(=O)NCCCCC(Cl)C(OCc3ccccc3[N+](=O)[O-])OCc3ccccc3[N+](=O)[O-])O2)c(=O)[nH]c1=O` (some centres not stated), the inhibition result is “inactive”.

The values are drawn from ChEMBL document CHEMBL6134806, “Oligonucleotide-based telomerase inhibitors with a photoresponsive α-chloroaldehyde” (Bioorg Med Chem Lett, 2025).
